# Legend:
# Sequences of proteins named here, by UniProt entry; tags and fusion partners are left off. Residues count along the entry.
# UniProt F1N1Q8, 1-1022: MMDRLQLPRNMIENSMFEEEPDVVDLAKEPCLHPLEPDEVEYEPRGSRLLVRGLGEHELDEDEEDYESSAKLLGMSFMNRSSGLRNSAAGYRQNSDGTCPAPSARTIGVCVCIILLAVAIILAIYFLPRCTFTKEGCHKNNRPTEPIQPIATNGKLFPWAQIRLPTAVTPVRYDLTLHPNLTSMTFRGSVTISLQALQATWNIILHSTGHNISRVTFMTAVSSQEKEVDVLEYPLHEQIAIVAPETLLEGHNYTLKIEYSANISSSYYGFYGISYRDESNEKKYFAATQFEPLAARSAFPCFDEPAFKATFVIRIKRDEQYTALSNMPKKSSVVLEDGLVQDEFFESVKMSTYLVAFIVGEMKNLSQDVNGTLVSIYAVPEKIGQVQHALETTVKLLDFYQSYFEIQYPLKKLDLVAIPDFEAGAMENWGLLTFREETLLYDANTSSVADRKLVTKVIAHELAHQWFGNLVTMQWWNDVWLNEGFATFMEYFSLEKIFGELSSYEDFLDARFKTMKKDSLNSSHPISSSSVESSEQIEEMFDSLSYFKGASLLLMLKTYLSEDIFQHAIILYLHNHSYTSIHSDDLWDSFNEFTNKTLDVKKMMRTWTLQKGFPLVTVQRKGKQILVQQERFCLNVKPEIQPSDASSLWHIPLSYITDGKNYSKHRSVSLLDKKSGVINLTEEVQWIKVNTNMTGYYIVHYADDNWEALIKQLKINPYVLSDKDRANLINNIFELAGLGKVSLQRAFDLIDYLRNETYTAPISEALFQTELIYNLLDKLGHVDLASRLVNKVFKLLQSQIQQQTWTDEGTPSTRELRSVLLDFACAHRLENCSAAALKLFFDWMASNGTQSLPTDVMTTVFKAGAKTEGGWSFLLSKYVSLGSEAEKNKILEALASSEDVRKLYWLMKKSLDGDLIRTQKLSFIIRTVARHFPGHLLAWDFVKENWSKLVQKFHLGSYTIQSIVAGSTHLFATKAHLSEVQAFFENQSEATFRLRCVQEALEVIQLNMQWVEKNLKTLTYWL
# UniProt H0VNM7, 1-1025: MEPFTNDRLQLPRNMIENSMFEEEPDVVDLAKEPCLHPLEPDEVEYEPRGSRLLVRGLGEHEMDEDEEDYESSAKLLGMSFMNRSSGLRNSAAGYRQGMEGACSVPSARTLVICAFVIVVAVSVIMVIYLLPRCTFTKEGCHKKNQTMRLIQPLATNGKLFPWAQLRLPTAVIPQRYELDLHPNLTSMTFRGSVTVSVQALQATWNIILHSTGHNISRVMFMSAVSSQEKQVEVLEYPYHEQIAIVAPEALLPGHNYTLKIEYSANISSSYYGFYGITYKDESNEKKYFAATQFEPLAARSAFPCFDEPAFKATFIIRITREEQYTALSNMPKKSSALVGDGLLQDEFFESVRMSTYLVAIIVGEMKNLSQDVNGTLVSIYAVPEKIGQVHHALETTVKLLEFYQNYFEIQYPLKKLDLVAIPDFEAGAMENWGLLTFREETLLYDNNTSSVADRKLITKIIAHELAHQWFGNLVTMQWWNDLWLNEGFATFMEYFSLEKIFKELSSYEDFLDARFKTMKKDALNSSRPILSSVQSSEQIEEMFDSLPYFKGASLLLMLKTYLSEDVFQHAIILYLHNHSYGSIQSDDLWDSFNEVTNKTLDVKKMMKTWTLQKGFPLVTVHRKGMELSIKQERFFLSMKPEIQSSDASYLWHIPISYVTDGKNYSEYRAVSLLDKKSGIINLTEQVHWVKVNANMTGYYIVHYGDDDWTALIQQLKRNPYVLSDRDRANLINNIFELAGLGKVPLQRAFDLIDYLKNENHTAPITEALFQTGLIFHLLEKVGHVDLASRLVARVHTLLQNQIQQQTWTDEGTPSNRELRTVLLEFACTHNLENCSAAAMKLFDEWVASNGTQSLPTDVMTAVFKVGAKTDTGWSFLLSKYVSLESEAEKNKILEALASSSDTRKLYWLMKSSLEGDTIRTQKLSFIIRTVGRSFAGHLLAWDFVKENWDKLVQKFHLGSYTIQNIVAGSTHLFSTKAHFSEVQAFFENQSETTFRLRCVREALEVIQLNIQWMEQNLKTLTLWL
# [1] = system: AT2 receptors; test: Autoradiography of 125I-Sar1,Ile8-AII binding in guinea pig brain; conditions: 100 nM competitor, FIG. 3
# [2] = target: AT4 receptor (Bos taurus, UniProt F1N1Q8); test: 125I-AIV binding and competition, solubilized bovine adrenal cortical receptor
# [3] = target: AT4 receptor (Cavia porcellus, UniProt H0VNM7); test: 125I-AIV binding and competition, guinea pig hippocampus membranes; conditions: competition of 0.6 nM 125I-AIV
# [4] = system: rats; test: Passive avoidance conditioning after icv injection; format: in vivo, rat
smiles,measurement,setting,value
CC[C@H](C)[C@H](NC(=O)[C@H](Cc1ccc(O)cc1)NC(=O)[C@@H](NC(=O)[C@H](CCCNC(=N)N)NC(=O)[C@@H](N)CC(=O)O)C(C)C)C(=O)N[C@@H](Cc1cnc[nH]1)C(=O)N1CCC[C@H]1C(=O)N[C@@H](Cc1ccccc1)C(=O)O,"inhibition of 125I-Sar1,Ile8-AII binding by non-labeled competitor",[1],specifically inhibited
CCCCCCC(=O)N[C@@H](Cc1ccc(O)cc1)C(=O)N[C@H](C(=O)O)[C@@H](C)CC,Ki,[2]; competition of 125I-AIV binding,0.0196 µM
CC[C@H](C)[C@H](NC(=O)[C@H](Cc1ccc(O)cc1)NC(=O)[C@@H](N)C(C)C)C(=O)O,Ki,[3],> 1 µM
CC(C)[C@H](N)CN[C@@H](Cc1ccc(O)cc1)C(=O)N[C@H](CN[C@@H](Cc1c[nH]cn1)C(=O)N1CCC[C@H]1C(=O)N[C@@H](Cc1ccccc1)C(=O)O)C(C)C,passive avoidance latency / cognitive effect (in words),[4],completely blocks the learning and/or retrieval of the passive avoidance task
CC[C@H](C)[C@H](NC(=O)[C@H](Cc1ccc(O)cc1)NC(=O)[C@@H](NC(=O)CNC)C(C)C)C(=O)N[C@@H](Cc1cnc[nH]1)C(=O)N1CCC[C@H]1C(=O)N[C@@H](Cc1ccccc1)C(=O)O,times less effective than AIV in competing binding,[2],approximately 100 times
